Biological target: Tel-FGFR4 (Homo sapiens (Human), UniProt P22455)
Assay: In vitro cellular kinase assay for FGFR4 (BaF3-Tel-FGFR4 cells, MSD capture ELISA of tyrosine phosphorylation)
Assay type: cell-based
Settings: 1 hour incubation

Protein sequences, listed by entry. Tags and fused reporters are not part of them. Chains listed by the source or under a name are the forms on record and can include a tag or linker.
UniProt P22455, other isoform, or with tags, fused parts or gaps: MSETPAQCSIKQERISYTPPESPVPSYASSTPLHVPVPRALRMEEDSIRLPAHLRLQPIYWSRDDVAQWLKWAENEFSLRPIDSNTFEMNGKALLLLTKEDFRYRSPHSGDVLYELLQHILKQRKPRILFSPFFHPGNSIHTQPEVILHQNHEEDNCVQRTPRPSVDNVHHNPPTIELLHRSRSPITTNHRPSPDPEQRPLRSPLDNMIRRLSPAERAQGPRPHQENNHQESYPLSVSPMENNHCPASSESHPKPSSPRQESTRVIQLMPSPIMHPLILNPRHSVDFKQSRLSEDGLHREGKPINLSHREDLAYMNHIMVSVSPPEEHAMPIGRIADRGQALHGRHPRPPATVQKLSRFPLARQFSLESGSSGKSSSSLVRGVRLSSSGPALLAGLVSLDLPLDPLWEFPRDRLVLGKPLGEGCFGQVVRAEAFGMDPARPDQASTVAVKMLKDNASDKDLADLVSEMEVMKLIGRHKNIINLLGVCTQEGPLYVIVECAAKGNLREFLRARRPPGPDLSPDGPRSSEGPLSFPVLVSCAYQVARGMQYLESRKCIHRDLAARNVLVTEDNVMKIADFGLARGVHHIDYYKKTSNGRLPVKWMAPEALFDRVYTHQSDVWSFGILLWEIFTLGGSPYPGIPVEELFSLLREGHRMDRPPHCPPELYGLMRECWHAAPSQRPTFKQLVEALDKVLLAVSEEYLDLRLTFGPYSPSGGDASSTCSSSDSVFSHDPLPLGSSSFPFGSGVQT

Structure (SMILES)	IC50 [nM]
O=Cc1ccc2c(n1)N(C(=O)Nc1ncc(Cl)c(OC3CCOC3)n1)CCC2 (racemic) [Example 32, N-(5-chloro-4-((tetrahydrofuran-3-yl)oxy)pyrimidin-2-yl)-7-formyl-3,4-dihydro-1,8-naphthyridine-1(2H)-carboxamide]	79
COCCNc1cc(NC(=O)N2CCCc3cc(N4CCC(C)C4=O)c(C=O)nc32)ncc1C#N (racemic) [Example 261, N-(5-cyano-4-((2-methoxyethyl)amino)pyridin-2-yl)-7-formyl-6-(3-methyl-2-oxopyrrolidin-1-yl)-3,4-dihydro-1,8-naphthyridine-1(2H)-carboxamide]	35.5

Reference: patent US9266883B2, “Ring-fused bicyclic pyridyl derivatives as FGFR4 inhibitors” (Novartis AG, priority 2013, dated 2016)
